Assay results reported in ChEMBL document CHEMBL1614630, “Extrapolation of preclinical pharmacokinetics and molecular feature analysis of "discovery-like" molecules to predict human pharmacokinetics” (Drug Metab Dispos, 2006).

Experiment: Clearance in rat after iv administration
Conditions: in vivo

- clearance: 68 mL/min/kg
SMILES: OC(CCN1CCCCC1)(c1ccccc1)C1CC2C=CC1C2 (stereo unspecified) [BIPERIDEN]
